The target of the assay is T1, plasma DPP-IV (Rattus norvegicus, UniProt P14740).
T1 construct: from tissue; host or cells: plasma of Sprague-Dawley rats
The assay can be described thus: Plasma DPP-IV activity determination in model rats. The format is in vivo.

Protein sequences, listed by entry. Tags and fused reporters are not part of them. Lines headed by an entry give the natural chain unless they say otherwise; changes in a name come on top.
UniProt P14740: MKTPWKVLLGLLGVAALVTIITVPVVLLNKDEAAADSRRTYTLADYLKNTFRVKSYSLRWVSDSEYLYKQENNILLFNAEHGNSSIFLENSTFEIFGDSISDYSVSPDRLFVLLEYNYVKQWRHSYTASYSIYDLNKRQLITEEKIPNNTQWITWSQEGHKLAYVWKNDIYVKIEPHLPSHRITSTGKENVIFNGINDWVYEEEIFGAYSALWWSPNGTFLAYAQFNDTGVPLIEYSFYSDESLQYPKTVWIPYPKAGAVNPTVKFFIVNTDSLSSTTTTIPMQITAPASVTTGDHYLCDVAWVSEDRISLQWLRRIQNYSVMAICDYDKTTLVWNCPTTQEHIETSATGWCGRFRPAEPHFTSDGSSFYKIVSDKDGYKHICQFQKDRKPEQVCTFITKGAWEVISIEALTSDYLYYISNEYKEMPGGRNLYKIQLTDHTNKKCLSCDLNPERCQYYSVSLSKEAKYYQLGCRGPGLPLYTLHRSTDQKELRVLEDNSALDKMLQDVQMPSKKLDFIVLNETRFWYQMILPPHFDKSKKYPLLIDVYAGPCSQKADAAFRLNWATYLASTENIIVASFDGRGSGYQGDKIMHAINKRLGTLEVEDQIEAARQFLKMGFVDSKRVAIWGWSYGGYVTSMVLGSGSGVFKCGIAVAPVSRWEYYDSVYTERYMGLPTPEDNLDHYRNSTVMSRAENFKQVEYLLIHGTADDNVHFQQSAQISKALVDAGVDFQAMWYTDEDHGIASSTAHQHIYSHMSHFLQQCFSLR

SMILES strings stand for the structures. Where two headings read alike, the source gives them in different places.

As to `N#C[C@@H]1CCCN1C(=O)CNC12CC3CC(CC(O)(C3)C1)C2` [vildagliptin, reference compound], the inhibition at 3 mg/kg is about 60% (read-out: plasma DPP-IV inhibition rate, fasted plasma, 3 mg/kg, model rats); about 80% (read-out: plasma DPP-IV inhibition, glucose load plasma, 3 mg/kg, model rats); about 60% (read-out: plasma DPP-IV inhibition, random plasma, 3 mg/kg, model rats).

The record behind these values is PMC5390258, “CMD-05, a novel promising clinical anti-diabetic drug candidate, in vivo and vitro studies” (Scientific Reports, 2017).
